# The list shows a part of the results, in another mix than the full data. Activity calls are given as the source filed them.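 How the source made its calls: active means compounds whose thallium flux B-score, printed positive for inhibition, exceeds three library SD while starting fluorescence stays within three; inactive means the rest.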
# Sequences of proteins named here, by UniProt entry; tags and fusion partners are left off.
# UniProt P51787, whole entry: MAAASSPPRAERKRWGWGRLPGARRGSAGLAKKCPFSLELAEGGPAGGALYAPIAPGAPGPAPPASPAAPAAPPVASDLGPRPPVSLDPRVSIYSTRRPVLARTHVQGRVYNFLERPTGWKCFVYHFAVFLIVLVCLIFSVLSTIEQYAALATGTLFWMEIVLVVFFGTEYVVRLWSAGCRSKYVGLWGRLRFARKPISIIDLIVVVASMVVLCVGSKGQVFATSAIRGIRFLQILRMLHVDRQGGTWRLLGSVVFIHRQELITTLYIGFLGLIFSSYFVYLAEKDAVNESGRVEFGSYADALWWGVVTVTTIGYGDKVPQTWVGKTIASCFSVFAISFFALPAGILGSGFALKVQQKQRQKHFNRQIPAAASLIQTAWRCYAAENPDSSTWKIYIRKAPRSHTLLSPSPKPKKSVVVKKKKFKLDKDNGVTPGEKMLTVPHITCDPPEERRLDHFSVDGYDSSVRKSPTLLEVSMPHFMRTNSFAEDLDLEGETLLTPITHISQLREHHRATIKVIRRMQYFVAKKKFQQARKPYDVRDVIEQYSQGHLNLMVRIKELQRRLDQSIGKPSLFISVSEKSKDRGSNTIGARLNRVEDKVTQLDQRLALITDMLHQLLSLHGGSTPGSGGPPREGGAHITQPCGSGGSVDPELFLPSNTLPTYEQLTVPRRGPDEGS
# Target: Potassium voltage-gated channel subfamily KQT member 1 (Homo sapiens) (UniProt P51787)
# Assay: KCNQ1 potassium current blockers – cell-based, thallium flux, high-throughput, primary screen (AID 2642);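 further: channel opened by potassium depolarization with thallium stimulus after 20 min compound exposure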
# Details: CHO-K1 KCNQ1, FluxOR thallium flux fluorescence; at 10 µM
row,Compound,outcome
1,COc1ccc(NC2CCN(C(=O)OC(C)(C)C)CC2)cc1,inactive
2,CN1CCN(CCOC(=O)C(O)(c2ccccc2)c2ccccc2)CC1,inactive
3,O=C(NCC1(N2CCOCC2)CCCCC1)c1cc(=O)[nH]c2ccccc12,inactive
4,COc1cc(C(=O)NCC2(N3CCCCC3)CCCCC2)ccc1OC(F)F,inactive
5,O=C(NCC1(N2CCCCC2)CCCCC1)c1cccc(C(F)(F)F)c1,inactive
6,O=C(NCC1(N2CCCCC2)CCCCC1)c1cccc([N+](=O)[O-])c1,inactive
7,CCN1CCC(Nc2ccc(Cl)cc2)CC1,inactive
8,N#CC1(Nc2ccccc2)CCN(CCc2ccccc2)CC1,inactive
9,O=C(NCC1(N2CCCCC2)CCCCC1)c1ccc(OC(F)F)cc1,inactive
10,CCCOc1ccc(C(=O)NCC2(N(C)C)CCCCC2)cc1OC,inactive
11,CN1CCC(Nc2cccc(F)c2)CC1,inactive
12,COc1cc(OC)c(C(=O)NCC2(N(C)C)CCCCC2)cc1OC,inactive
13,COc1ccc(CN(CCCl)CCCl)cc1Cl,inactive
14,CN(C)c1cccc(C(=O)NCC2(N3CCCCC3)CCCCC2)c1,inactive
15,CC(C)c1ccc(NC2CCN(C(=O)OC(C)(C)C)CC2)cc1,inactive
16,CCOC(=O)N1CCC(Nc2ccc(OC)cc2)CC1,inactive
17,N#CC1(Nc2ccccc2)CCN(Cc2ccccc2)CC1,inactive
18,O=C(OC1CN2CCC1CC2)C1c2ccccc2Oc2ccccc21 (centres undefined),inactive
19,O=C(NCC1(N2CCOCC2)CCCCC1)c1cc2ccccc2o1,inactive
20,O=C(NCC1(N2CCCCC2)CCCCC1)c1ccc(Cl)nc1,inactive

row,Compound,outcome
1,Cc1cc(C)cc(N(C(=O)c2ccccc2)C2CCN(C(=O)OC(C)(C)C)CC2)c1,inactive
2,CSc1ccccc1C(=O)NCC1(N2CCCCC2)CCCCC1,inactive
3,O=C(NCC1(N2CCCCC2)CCCCC1)c1ccc(=O)[nH]c1,inactive
4,O=C(NCC1(N2CCCCC2)CCCCC1)c1cccs1,inactive
5,COc1ccc(C(=O)NCC2(N3CCCCC3)CCCCC2)cc1,inactive
6,CC(C)(C)OC(=O)N1CCC(N(C(=O)c2ccccc2)c2ccc(F)cc2)CC1,inactive
7,COc1ccc(C(=O)NCC2(N3CCCCC3)CCCCC2)c(OC)c1OC,inactive
8,CCOC(=O)N1CCC(Nc2cccc(C)c2)CC1,inactive
9,COc1cc(C(=O)NCC2(N(C)C)CCCCC2)ccc1OC(F)F,inactive
10,Cc1ccc(OCC(C)C)c(CN(CCCl)CCCl)c1,inactive
11,O=C(NCC1(N2CCCCC2)CCCCC1)c1ccc(F)cc1,inactive
12,CCOC(=O)N1CCC(Nc2ccc(F)cc2)CC1,inactive
13,COc1ccc(NC2CCN(CCc3ccccc3)CC2)c(OC)c1,inactive
14,CCOc1ccc(C)cc1CN(CCCl)CCCl,inactive
15,CN(C)c1ccc(C(=O)NCC2(N3CCCCC3)CCCCC2)cc1,inactive
16,CCN1CCC(Nc2cccc(F)c2)CC1,inactive
17,Cc1ccc(C(=O)NCC2(N3CCCCC3)CCCCC2)o1,inactive
18,Fc1ccccc1NC1CCN(Cc2ccccc2)CC1,inactive
19,COc1cc(OC)cc(C(=O)NCC2(N3CCCCC3)CCCCC2)c1,inactive
20,CCCOc1ccc(C)cc1CN(CCCl)CCCl,inactive

row,Compound,outcome
1,CN1CCC(Nc2ccc(Cl)cc2)CC1,inactive
2,CCC(CO)(C(=O)OC1CN2CCC1CC2)c1ccccc1 (centres undefined),inactive
3,COc1cccc(C(=O)N(c2cc(C)cc(C)c2)C2CCN(C(=O)OC(C)(C)C)CC2)c1,inactive
4,COc1cc(OC)cc(C(=O)NCC2(N3CCOCC3)CCCCC2)c1,inactive
5,CCCOc1ccc(C(=O)NCC2(N(C)C)CCCCC2)cc1,inactive
6,CC(C)(C)OC(=O)N1CCC(Nc2ccccc2)CC1,inactive
7,O=C(O)C1(Nc2ccccc2)CCN(Cc2ccccc2)CC1,inactive
8,CCOc1ncccc1C(=O)NCC1(N2CCOCC2)CCCCC1,inactive
9,CN1CCC(Nc2ccc(F)c(Cl)c2)CC1,inactive
10,CCc1cc(C(=O)NCC2(N3CCCCC3)CCCCC2)sc1C,inactive
11,O=C(OC1CN2CCC1CC2)C1c2ccccc2C=Cc2ccccc21 (centres undefined),inactive
12,N/C(=N\O)c1c(N)no[n+]1[O-],inactive
13,CCOC(=O)N1CCC(Nc2ccc(C)cc2)CC1,inactive
14,COc1ccc(C(=O)NCC2(N3CCOCC3)CCCCC2)cc1OC,inactive
15,c1ccc(CN2CCC(Nc3ccccc3)CC2)cc1,inactive
16,CCCN1CCC(Nc2cc(OC)cc(OC)c2)CC1,inactive
17,CN(C)C1(CNC(=O)c2cccc(C#N)c2)CCCCC1,inactive
18,CC(C)(C)OC(=O)N1CCC(N(C(=O)c2ccccc2)c2ccc(Cl)cc2)CC1,inactive
19,N#Cc1ccc(C(=O)NCC2(N3CCCCC3)CCCCC2)cc1,inactive

# From PubChem BioAssay AID2642 (Johns Hopkins Ion Channel Center, 2010)
